## Measured affinities in a library of Ab-14 heavy chain variants

Reference: Li et al. 2023, doi:10.1038/s41467-023-39022-2. File: FLAb, binding data.

All variants were tested on one target, the spike HR2 peptide PDVDLGDISGINAS (SARS-CoV-2).

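The parent was found by panning a naive human phage display library on the peptide. Designed CDR sequences, proposed from the first random library and measured here. Their group label is 14H_GPLM_Gen (GPLM: also part of the Gaussian process libraries; Gen: genetic algorithm; a sequence that several methods proposed may carry one label only). The assay is AlphaSeq: two haploid yeast populations carry antibody and antigen on their surface. The frequency of each diploid, read from paired DNA barcodes, reflects how well the two displayed proteins bind. Each replicate has its own calibration line, from reference interactions of the BCL2 family. Mating was done six times.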

Parent scFv Ab-14: VH joined to VL by the linker GGGGSGGGGSGGGGS. Changes lie in the heavy chain CDRs alone.
VH: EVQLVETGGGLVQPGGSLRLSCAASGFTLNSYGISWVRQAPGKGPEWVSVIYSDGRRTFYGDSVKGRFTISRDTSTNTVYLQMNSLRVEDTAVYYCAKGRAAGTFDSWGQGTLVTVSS
VL: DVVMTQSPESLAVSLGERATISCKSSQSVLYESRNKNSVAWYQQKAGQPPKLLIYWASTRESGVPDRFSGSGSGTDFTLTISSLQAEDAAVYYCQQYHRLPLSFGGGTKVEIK

Variants are written as CDR1, CDR2 and CDR3 of the heavy chain (limits as in the source). Parent: GFTLNSYGIS, VIYSDGRRTFYGDSVK, GRAAGTFDS.
The read-out is the apparent dissociation constant on a log10 scale (nM): the lower, the stronger.
"ND" means that the variant was in the library but no mating with the target was seen in that replicate; the authors take this as a sign of poor binding, and no number exists.
The authors' rule: three or more of the six replicates give a measured affinity, fewer mean a poor binder.
The range of this assay differs from that of the first round, and the authors advise against merging the two.
The parent sequence was in this pool as ten entries: three were never detected, three once, and four in most replicates, with averages from 0.34 to 2.37.
As a blank, each scFv also met three strains without target: over all heavy chain designs, 1% of these pairings were detected, typically at 2.08 and seldom below 0.84. The control count says in how many pairings with the empty strains this scFv gave a signal, with their mean in brackets.

CDR-H1,CDR-H2,CDR-H3,"replicates, log10 nM",control signals
GFTLNSYGIS,VIYSDGRRTFYGDSVK,GDVAGTFDT,0.12 / 0.09 / 0.43 / -0.30 / -0.39 / 0.18,0 of 18
GFSLNSYGIS,VIYSDGRRTFYMDSVK,GQTAGTFDS,0.83 / 0.89 / 0.54 / 1.23 / 1.00 / 0.66,1 of 18 (2.58)
GFSLNSYGIS,VIYSDGRRTFYADHVK,GEAAGTFDS,0.27 / 0.49 / 0.41 / 0.46 / 0.65 / 0.28,0 of 18
GKSLNSYGIS,VIYSDGRRTFYADSVK,GRAAGTFDS,ND / ND / ND / ND / ND / ND,0 of 18
GFSLNSYGIS,VIYSDGRRTFYADSVK,GQTAGTFDL,0.20 / -0.11 / -0.08 / -0.12 / -0.02 / -0.02,0 of 18
GFTLNEYGIS,VIYSDGRRTFYGDSVK,GRIAGTFDS,0.58 / -0.17 / -0.32 / 0.07 / 0.25 / 0.20,1 of 18 (3.51)
GFSLNQYGIS,VIYSDGRRTFYGDSVK,GEAAGTFDS,0.89 / -0.72 / -0.63 / 0.18 / -0.63 / -0.64,0 of 18
GFVLNEYGIS,VIYSDGRRTFYADSVK,GRAAGTFDS,0.76 / 0.33 / 0.26 / 0.43 / 0.56 / 0.72,0 of 18
GFSLNDYGIS,VIYSDGRRTFYIDSVK,GRTAGTFDS,-0.20 / -0.32 / -0.24 / -0.53 / -0.74 / -0.10,0 of 18
GFSLNSYGIS,VIYSDGRRTFYGDSVK,GQAAGTFDN,ND / 0.62 / -0.03 / 0.61 / 0.64 / ND,0 of 18
GFTLNDYGIS,VIYSDGRRTFYGDSVK,GRYAGTFDS,0.33 / 0.46 / 2.29 / ND / 0.43 / 1.07,0 of 18
GFSLNSYGIS,VIYSDGRRTFYADSVK,GRTAGKFDS,ND / ND / ND / ND / ND / ND,0 of 18
GFTLNSYGIS,VIYADGRRTFYADSVK,GKAAGTFDS,-0.02 / -0.19 / 0.00 / -0.95 / -0.64 / -0.09,0 of 18
GFSLNSYGIS,VIYSDGRRTFYADAVK,GEAAGTFDS,0.18 / 1.33 / -0.06 / 0.80 / 0.29 / 0.22,0 of 18
GFTLNEYGIS,VIYSDGRRTFYGDSVK,GQAAGTFDK,0.62 / 0.11 / 0.54 / 0.39 / 0.62 / 0.49,0 of 18
GFPLNEYGIS,VIYSDGRRTFYGDSVK,GRTAGTFDT,0.45 / 0.48 / 0.05 / -0.01 / 0.58 / 0.05,1 of 18 (2.22)
GFSLNEYGIS,VIYSDGRRTFYGDSVK,GRAAGTFDK,1.66 / 1.10 / 0.72 / 0.82 / 0.75 / 2.11,0 of 18
GFSLNSYGIS,VIYSDGRRTFYGDSVK,GQAAGTFDI,ND / -0.29 / 0.35 / -0.49 / ND / -0.22,0 of 18
GFQLNSYGIS,VIYSDGRRTFYADSVK,GRVAGTFDS,0.62 / 0.47 / 0.49 / 0.38 / 0.41 / 0.68,0 of 18
GFSLNSYGIS,VIYADGRRTFYADSVK,GEAAGTFDS,0.02 / 0.68 / -0.18 / 0.24 / -0.17 / 1.03,0 of 18
GFSLNTYGIS,VIYSDGKRTFYADSVK,GRAAGTFDS,0.46 / 0.61 / 0.32 / 0.05 / 0.32 / 0.07,1 of 18 (1.84)
GKSLNDYGIS,VIYSDGRRTFYGDSVK,GRTAGTFDS,ND / 2.49 / ND / 1.82 / 3.76 / 3.06,0 of 18
GFTLNSYGIS,VIYSDGRRTFYSDSVK,GQAVGTFDT,ND / ND / ND / ND / ND / ND,1 of 18 (2.98)
GFSLNSYGIS,VIYSDGRRTFYGDSVK,GQEAGTFDS,1.18 / 0.34 / 0.12 / 0.23 / 0.38 / 0.60,0 of 18
GFSLNNYGIS,VIYSDGRRTFYGDSVK,GWTAGTFDS,0.72 / 0.17 / 0.11 / 0.14 / -0.18 / 0.43,0 of 18
GFSLNEYGIS,VIYSDGRRTFYGDSVK,GRSAGTFDK,0.39 / -0.41 / -0.21 / -0.06 / 0.05 / 0.19,0 of 18
GFSLNSYGIS,VIYSDGRRTFYGDQVK,GRTAGTFDS,-0.28 / -0.11 / -0.52 / -0.58 / -0.37 / -0.01,0 of 18
GFSLNNYGIS,VIYSDGRRTFYGDSVK,GSAAGTFDS,0.45 / 0.12 / 0.42 / -0.11 / 0.50 / 0.73,0 of 18
GFTLNSYGIS,VIYSDGRRTFYHDSVK,GQEAGTFDS,0.33 / 0.29 / ND / 0.00 / 0.74 / 0.22,0 of 18
GFSLNSYGIS,VIYSDGRRTFYGDSVK,GRTAGTFDS,ND / 1.00 / 1.43 / 1.20 / 1.38 / 0.73,0 of 18
GFQLNEYGIS,VIYSDGRRTFYGDSVK,GRTAGTFDS,0.74 / 2.56 / 1.64 / 0.80 / ND / 1.37,0 of 18
GFGLNEYGIS,VIYSDGRRTFYGDSVK,GRTAGTFDS,0.38 / 0.02 / 0.27 / 0.08 / 0.04 / 0.09,0 of 18
GFSLNSYGIS,VIYSDGRRTFYADSVK,GHAAGTFDT,-0.11 / -0.12 / -0.60 / -0.20 / -0.42 / -0.14,0 of 18
GFDLNSYGIS,VIYSDGRRTFYADSVK,GVAAGTFDS,0.62 / 1.13 / 0.01 / 0.35 / 0.05 / 1.07,0 of 18
GFGLNSYGIS,VIYSDGRRTFYGDSVK,GRTAGTFDS,1.01 / 0.60 / 1.12 / 1.85 / 1.21 / 0.82,0 of 18
GFSLNSYGIS,VIYADGRRTFYGDSVK,GNAAGTFDS,0.13 / 0.32 / -0.26 / -0.07 / 0.07 / 0.21,0 of 18
GFWLNEYGIS,VIYSDGRRTFYADSVK,GKAAGTFDS,1.35 / 0.55 / 1.19 / 0.56 / 0.44 / 1.36,1 of 18 (2.18)
GFQLNEYGIS,VIYSDGRRTFYGDSVK,GRAAGTFDT,0.21 / 0.13 / 0.03 / -0.28 / -0.09 / -0.04,0 of 18
GFSLNSYGIS,VIYSDGRRTAYGDSVK,GRQAGTFDS,ND / -0.31 / -0.22 / 0.08 / 1.14 / 1.30,0 of 18
GFELNEYGIS,VIYSDGRRTFYGDSVK,GRNAGTFDS,0.23 / -0.21 / 0.76 / -0.18 / 0.33 / 0.16,0 of 18
GFTLNSYGIS,VIYADGRRTFYGDDVK,GKAAGTFDS,0.60 / 0.41 / 0.33 / 0.42 / 0.28 / 0.42,0 of 18
GFWLNSYGIS,VIYSDGRRTFYADSVK,GQAAGTFDS,ND / 2.43 / 1.79 / 2.89 / 2.12 / 1.84,0 of 18

Extract of 3 entries:

{"CDR-H1": "GKSLNDYGIS", "CDR-H2": "VIYSDGRRTFYGDSVK", "CDR-H3": "GRTAGTFDS", "replicates, log10 nM": "ND / 2.49 / ND / 1.82 / 3.76 / 3.06", "control signals": "0 of 18"}
{"CDR-H1": "GFSLNSYGIS", "CDR-H2": "VIYSDGRRTFYADHVK", "CDR-H3": "GEAAGTFDS", "replicates, log10 nM": "0.27 / 0.49 / 0.41 / 0.46 / 0.65 / 0.28", "control signals": "0 of 18"}
{"CDR-H1": "GFSLNNYGIS", "CDR-H2": "VIYSDGRRTFYGDSVK", "CDR-H3": "GSAAGTFDS", "replicates, log10 nM": "0.45 / 0.12 / 0.42 / -0.11 / 0.50 / 0.73", "control signals": "0 of 18"}